Measured values from paper PMC5148066.

Amino acid sequences for entries named in this document (tags omitted). Residues count along the entry.
UniProt P30882, 24-91: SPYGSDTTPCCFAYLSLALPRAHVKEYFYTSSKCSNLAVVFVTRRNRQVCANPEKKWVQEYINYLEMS

Experiments:
[1] = target: Bovine papular stomatitis virus chemokine-binding protein (Bovine papular stomatitis virus); test: SPR; BPSV-CBP immobilised on a CM5 chip (~500 RU, amine coupling, 10 mM sodium acetate pH 4.5); serial dilutions of mouse chemokines in HBS-EP pH 7.4 flowed in triplicate, 3 min association, 10 min dissociation, 25°C, Biacore X100; global fit, 1:1 binding model
[2] = target: Bovine papular stomatitis virus chemokine-binding protein (Bovine papular stomatitis virus (strain V660 named for the sequence analysis)); test: SPR; BPSV-CBP immobilised on a CM5 chip (~500 RU) by amine coupling; serial dilutions of mouse chemokines in HBS-EP (20 mM HEPES, 150 mM NaCl, 3.4 mM EDTA, 0.005% Polysorbate 20, pH 7.4) run in triplicate, 3 min association, 10 min dissociation; 25°C, Biacore X100; global fit with a 1:1 binding model

mouse CCL5 (from UniProt P30882 24-91) (ligand)
Kd [1]: 3.75 pM
kon [1]: 5.32e+06 M⁻¹ s⁻¹
koff [2]: 2e-05 s⁻¹
